Values quoted from earlier work in patent US20130209985A1, “SAMPLE COLLECTION DEVICES WITH BLOOD STABILIZING AGENTS” (priority 2012, published 2013).

Protein sequences, listed by entry. Tags and fused reporters are not part of them. Lines headed by an entry give the natural chain unless they say otherwise; changes in a name come on top.
UniProt P22303: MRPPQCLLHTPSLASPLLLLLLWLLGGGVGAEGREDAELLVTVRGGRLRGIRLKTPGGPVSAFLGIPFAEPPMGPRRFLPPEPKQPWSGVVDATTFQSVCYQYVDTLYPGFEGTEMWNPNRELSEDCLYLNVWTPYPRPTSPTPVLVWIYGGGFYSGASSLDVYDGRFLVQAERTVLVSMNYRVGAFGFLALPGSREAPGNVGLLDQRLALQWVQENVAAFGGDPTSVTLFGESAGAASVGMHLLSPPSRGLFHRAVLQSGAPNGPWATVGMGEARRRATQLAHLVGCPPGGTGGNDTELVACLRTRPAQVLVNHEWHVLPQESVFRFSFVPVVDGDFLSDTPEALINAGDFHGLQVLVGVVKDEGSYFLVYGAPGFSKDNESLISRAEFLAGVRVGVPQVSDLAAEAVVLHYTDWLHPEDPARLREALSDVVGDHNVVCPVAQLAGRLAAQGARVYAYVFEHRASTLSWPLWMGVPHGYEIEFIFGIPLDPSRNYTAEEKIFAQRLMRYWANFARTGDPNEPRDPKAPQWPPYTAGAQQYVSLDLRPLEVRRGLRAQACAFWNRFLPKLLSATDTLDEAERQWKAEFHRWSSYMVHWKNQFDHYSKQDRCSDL

Molecular target: acetylcholinesterase (AChE) (Homo sapiens, UniProt P22303)
Conditions: read-out: Ki for AChE; reported literature values; cited from earlier work

Substance	Ki
(9E)-N1-(7-(1,2,3,4-Tetrahydroacridin-9-ylamino)heptyl)-9-ethylidene-4,4,7-trimethylbicyclo[3.3.1]non-6-ene-1,3-diamine	16.5 nM
(9E)-N1-(7-(1,2,3,4-Tetrahydroacridin-9-ylamino)heptyl)-9-ethylidene-7-methylbicyclo[3.3.1]non-6-ene-1,3-diamine	15.7 nM
